The structures appear in SMILES notation. This is a selection; strong and weak results do not stand in their true shares. Some results for these compounds are left out of this collection, so the calls shown say nothing about other tests. Calls of active or inactive are those of the source.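 How the source made its calls: active means inhibition of 50% or more; inactive means inhibition below 50%.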

The test in a line: blockers of yeast NLRP3/ASC/caspase-1 reporter – luminescence, uHTS, primary screen (AID 2825).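 Further: plate controls were induced DMSO wells for no effect and uninduced yeast grown without galactose for full effect.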 To be noted: Yeast reconstituted NLRP3/ASC/caspase-1, beta-gal luminescence, 24 h; at 10 µM; stronger effect = higher value.
The term inhibition denotes the drop in the measured response relative to a control, in per cent. In the case of `O=C(OC1CN2CCC1CC2)C(CO)(c1ccccc1)c1ccccc1` (centres undefined), the inhibition was inactive: 2.34%.
For `CN(C)c1cccc(C(=O)NCC2(N(C)C)CCCCC2)c1` the value was inactive: 2.68%.
As for `CC(C)Oc1ccc(C(=O)NCC2(N(C)C)CCCCC2)cc1`, the inhibition was inactive: 9.97%.
Regarding `COc1ccc(Br)c(C(=O)NCC2(N3CCCCC3)CCCCC2)c1`, the inhibition is inactive: 7.59%.
As to `COc1cc(C(=O)NCC2(N(C)C)CCCCC2)c([N+](=O)[O-])cc1OC`, the inhibition was inactive: 0.767%.
To `CN(C)C1(CNC(=O)c2ccc(Br)cc2)CCCCC1` belongs inactive: 11.4%; to `O=C(NCC1(N2CCCCC2)CCCCC1)c1cccc(Cl)c1`, inactive: 19%.
For `COc1cccc(C(=O)NCC2(N3CCCCC3)CCCCC2)c1` the value was inactive: -4.17%; for `COc1ccc(Cl)cc1C(=O)NCC1(N(C)C)CCCCC1`, inactive: 5.25%; for `Cc1ccccc1C(=O)NCC1(N2CCCCC2)CCCCC1`, inactive: 15.8%.
Consider `CN(C)C1CCCC1OC(=O)C(O)(c1ccccc1)c1ccccc1` (centres undefined), for which the inhibition is inactive: -9.23%.
In the case of `CN(C)c1ccc(C(=O)NCC2(N(C)C)CCCCC2)cc1`, the inhibition was inactive: 2.82%.
To `Cc1cc(C(=O)NCC2(N3CCCCC3)CCCCC2)ccc1[N+](=O)[O-]` belongs inactive: 24.3%; to `CCN1CCCC(OC(=O)C2(O)c3ccccc3C=Cc3ccccc32)C1` (centres undefined), inactive: 11.2%; to `O=C(NCC1(N2CCCCC2)CCCCC1)c1cccc(Br)c1`, inactive: 2.54%.
On to `COc1ccc(C(=O)NCC2(N(C)C)CCCCC2)cc1`, for which the inhibition was inactive: 6.27%.
For `C=CCN1CCN(CCOC(=O)C(O)(c2ccccc2)c2ccccc2)CC1` the value was inactive: -2.02%; for `O=C(NCC1(N2CCCCC2)CCCCC1)c1cc(F)c(F)cc1Cl`, inactive: 15.1%.
For `CN1[C@@H]2CC[C@H]1CC(OC(=O)C(O)(c1ccccc1)c1ccccc1)C2` (some centres undefined) the value was inactive: 18.5%; for `O=C(NCC1(N2CCCCC2)CCCCC1)c1cc([N+](=O)[O-])ccc1Cl`, inactive: -5.32%; for `Cc1ccc(C(=O)NCC2(N3CCCCC3)CCCCC2)cc1`, inactive: 0.601%.
Turning to `CC(C)N1C(=O)CC2(CCN(CCOC(=O)C(O)(c3ccccc3)c3ccccc3)CC2)C1=O`, the inhibition is inactive: 18.3%.
In the case of `CCN(CC)CC(C)C(C)OC(=O)C(O)(c1ccccc1)c1ccccc1` (centres undefined), the inhibition is inactive: 9.21%.
For `COc1cc(SC)ccc1C(=O)NCC1(N(C)C)CCCCC1` the value was inactive: 3.51%.

These data come from PubChem BioAssay AID2825 (Sanford-Burnham Center for Chemical Genomics, 2010).
